Laboratory results taken from US9062308B2, “Compositions and methods for treatment of tamoxifen resistant breast cancer” (The Johns Hopkins University, priority 2011, dated 2015).

Test system: TGFα and HB-EGF
Assay: TGFα and HB-EGF expression in MCF-10A-B7 cells under EGFR inhibition
Format: cell-based

## COc1cc2ncnc(Nc3ccc(F)c(Cl)c3)c2cc1OCCCN1CCOCC1 [gefitinib]
  elevated expression of TGFα and HB-EGF: significantly abrogated
